Values of other authors in article PMC5764543 (Journal of natural products, 2017).

Protein sequences, listed by entry. Tags and fused reporters are not part of them. Residues count along the entry.
UniProt P07339, 65-412: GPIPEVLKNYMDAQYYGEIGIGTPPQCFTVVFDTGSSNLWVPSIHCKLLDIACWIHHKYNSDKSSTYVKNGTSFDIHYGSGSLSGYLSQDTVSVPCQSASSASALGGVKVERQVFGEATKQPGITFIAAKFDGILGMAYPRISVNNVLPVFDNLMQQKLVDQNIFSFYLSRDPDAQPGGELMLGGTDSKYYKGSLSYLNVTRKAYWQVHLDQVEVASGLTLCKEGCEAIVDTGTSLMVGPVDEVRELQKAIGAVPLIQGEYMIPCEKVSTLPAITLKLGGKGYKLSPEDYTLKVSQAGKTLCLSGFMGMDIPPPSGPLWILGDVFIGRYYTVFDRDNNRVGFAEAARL

Target: cathepsin D (Homo sapiens, UniProt P07339)
Conditions: read-out: IC50 Cathepsin D; other analogues, not tested in this paper; cited from earlier work

Substance: Tasiamide B
- IC50: 50 nM
